# Measurements: PubChem BioAssay AID456 (Sanford-Burnham Center for Chemical Genomics, 2006)
# Only a part is listed here, and it is no random draw. Entries with a potency or affinity are not part of this list. Active and inactive are the calls of the source.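 Rule for the calls: active = top tenth filtered wells with inhibition above zero that passed visual or statistical confirmation; inactive = the rest, including hits rejected on review.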
# Assay: inhibitors of TNFa-induced VCAM-1 surface display, imaging, high-content imaging, pooled HUVEC, TNFa stimulus (AID 456)
# Details: HUVEC TNFa-induced VCAM-1 surface expression, immunofluorescence imaging
row,Structure (SMILES),outcome
1,Fc1ccccc1NC1CCN(Cc2ccccc2)CC1,inactive
